Legend:
[1] = Thermogravimetric analysis of the quantity of additive encapsulated in microporous or mesoporous material
[2] = Chemical compatibility with TCCA: chlorine gas released after 15 hours at 60±2° C., iodometric titration; details: TCCA mixtures + encapsulated additives (100 g of TCCA + 0.1% additive), TCCA alone (100 g) as reference standard

Compound	% Encapsulated (g additive/g dry solid) × 100 ([1]; MIL-53 MOF, two steps, 60° C., encapsulation time 1 day) [%]	% Encapsulated (g additive/g dry solid) × 100 ([1]; MIL-53 MOF, two steps, 60° C., encapsulation time 2 days) [%]	% Encapsulated (g additive/g dry solid) × 100 ([1]; MIL-53 MOF, two steps, 60° C., encapsulation time 4 days) [%]	% Encapsulated (g additive/g dry solid) × 100 ([1]; MIL-53 MOF, two steps, 60° C., encapsulation time 7 days) [%]	% Encapsulated (g additive/g dry solid) × 100 ([1]; MIL-88 A (Al) MOF, in-situ encapsulation in one single step (Example 4)) [%]	% Encapsulated (g additive/g dry solid) × 100 ([1]; MIL-88 A (Al) MOF, two steps, encapsulation time 3 days) [%]	% Encapsulated (g additive/g solid total) × 100 ([1]; encapsulated in silica by impregnation (Example 1)) [%]	mg Cl2 released [2] [mg mg Cl2]
icaridin	27.0	20.5	24.9	24.9	16.6	16.0	53.5	–
O=c1n(Cl)c(=O)n(Cl)c(=O)n1Cl	–	–	–	–	–	–	–	1.4
